Reference: PubChem BioAssay AID1091 (ChemBank, 2008)
This is a selection; strong and weak results do not stand in their true shares. Activity calls are given as the source filed them.

Assay: S. cerevisiae growth modulation with rapamycin, primary screen, strain BY4716, OD600, 96 h (AID 1091); also: test concentration not given here
Details: higher = more signal, called active from +8 up or from −8 down

Structure (SMILES) | z-score
COP(=O)(/N=C1/CC(CCCO)=CC(C2CC2)N1Cc1cc2c(cc1Br)OCO2)OC (stereo not given) | inactive: -1.36
O=P(/N=C1/CC(CCCO)=CC(C2CC2)N1Cc1cc2c(cc1Br)OCO2)(Oc1ccccc1)Oc1ccccc1 (stereo not given) | inactive: -2.07
COP(=O)(/N=C1/CC(CCCO)=CC(C2CC2)N1Cc1cccc(OC(F)(F)F)c1)OC (stereo not given) | inactive: -1.15
CN1/C(=N\P(=O)(Oc2ccccc2)Oc2ccccc2)CC(CCCO)=CC1c1cccs1 (stereo not given) | inactive: 0.224
O=P(/N=C1/CC(CCCO)=CC(c2cccs2)N1Cc1cccc(OC(F)(F)F)c1)(Oc1ccccc1)Oc1ccccc1 (stereo not given) | inactive: -2.1
CN1/C(=N\P(=O)(Oc2ccccc2)Oc2ccccc2)CC(c2ccc(CO)cc2)=CC1C1CC1 (stereo not given) | inactive: 2.16
CC1C=C(CCCO)C/C(=N/P(=O)(Oc2ccccc2)Oc2ccccc2)N1Cc1cccc(OC(F)(F)F)c1 (stereo not given) | inactive: 1.08
O=P(/N=C1/CC(CCCO)=CC(c2ccc(CN3CCCC3)cc2)N1Cc1cc2c(cc1Br)OCO2)(Oc1ccccc1)Oc1ccccc1 (stereo not given) | inactive: -1.06
COP(=O)(/N=C1/CC(CCCO)=CC(c2ccc(CN3CCCC3)cc2)N1Cc1cc2c(cc1Br)OCO2)OC (stereo not given) | inactive: -1.55
O=P(/N=C1/CC(CCCO)=CC(C2CC2)N1Cc1cccc(OC(F)(F)F)c1)(Oc1ccccc1)Oc1ccccc1 (stereo not given) | inactive: -1.25
COP(=O)(/N=C1/CC(c2ccc(CO)cc2)=CC(c2cccs2)N1C)OC (stereo not given) | inactive: 2.54
O=P(/N=C1/CC(c2ccc(CO)cc2)=CC(c2cccs2)N1Cc1cccc(OC(F)(F)F)c1)(Oc1ccccc1)Oc1ccccc1 (stereo not given) | inactive: 4.84
O=P(/N=C1/CC(c2ccc(CO)cc2)=CC(C2CC2)N1Cc1cc2c(cc1Br)OCO2)(Oc1ccccc1)Oc1ccccc1 (stereo not given) | inactive: 2.27
CN1/C(=N\P(=O)(Oc2ccccc2)Oc2ccccc2)CC(CCCO)=CC1c1ccc(CN2CCCC2)cc1 (stereo not given) | inactive: -0.122
COP(=O)(/N=C1/CC(CCCO)=CC(c2ccc(CN3CCCC3)cc2)N1Cc1cccc(OC(F)(F)F)c1)OC (stereo not given) | inactive: -0.97
O=P(/N=C1/CC(CCCO)=CC(c2cccs2)N1Cc1cc2c(cc1Br)OCO2)(Oc1ccccc1)Oc1ccccc1 (stereo not given) | inactive: -1.9
COP(=O)(/N=C1/CC(c2ccc(CO)cc2)=CC(C2CC2)N1Cc1sc2ccccc2c1Cl)OC (stereo not given) | inactive: -1.57
CN1/C(=N\P(=O)(Oc2ccccc2)Oc2ccccc2)CC(c2ccc(CO)cc2)=CC1c1cccs1 (stereo not given) | inactive: 4.04
COP(=O)(/N=C1/CC(CCCO)=CC(c2cccs2)N1C)OC (stereo not given) | inactive: -1.42
COP(=O)(/N=C1/CC(CCCO)=CC(c2ccc(CN3CCCC3)cc2)N1C)OC (stereo not given) | inactive: -0.545
COP(=O)(/N=C1/CC(CCCO)=CC(C2CC2)N1C)OC (stereo not given) | inactive: -0.385
COP(=O)(/N=C1/CC(CCCO)=CC(C)N1Cc1cccc(OC(F)(F)F)c1)OC (stereo not given) | inactive: 0.182
COP(=O)(/N=C1/CC(c2ccc(CO)cc2)=CC(C2CC2)N1C)OC (stereo not given) | inactive: 1.04
COP(=O)(/N=C1/CC(CCCO)=CC(C2CC2)N1Cc1sc2ccccc2c1Cl)OC (stereo not given) | inactive: -1.42
O=P(/N=C1/CC(CCCO)=CC(C2CC2)N1Cc1sc2ccccc2c1Cl)(Oc1ccccc1)Oc1ccccc1 (stereo not given) | inactive: -0.869
COP(=O)(/N=C1/CC(c2ccc(CO)cc2)=CC(C2CC2)N1Cc1cc2c(cc1Br)OCO2)OC (stereo not given) | inactive: -0.465
COP(=O)(/N=C1/CC(CCCO)=CC(c2ccc(CN3CCCC3)cc2)N1Cc1sc2ccccc2c1Cl)OC (stereo not given) | inactive: -1.14
CN1/C(=N\P(=O)(Oc2ccccc2)Oc2ccccc2)CC(CCCO)=CC1C1CC1 (stereo not given) | inactive: -1.33
O=P(/N=C1/CC(CCCO)=CC(c2ccc(CN3CCCC3)cc2)N1Cc1sc2ccccc2c1Cl)(Oc1ccccc1)Oc1ccccc1 (stereo not given) | inactive: -2.35
O=P(/N=C1/CC(c2ccc(CO)cc2)=CC(C2CC2)N1Cc1sc2ccccc2c1Cl)(Oc1ccccc1)Oc1ccccc1 (stereo not given) | inactive: 0.498
